Experimental data taken from patent US11629146B2, “Substituted [1,2,4]triazolo[4,3-a]pyrazines as modulators of sodium channel activity” (Praxis Precision Medicines, Inc., priority 2016, dated 2023).

Protein sequences, listed by entry. Tags and fused reporters are not part of them.
UniProt Q9UQD0, whole entry: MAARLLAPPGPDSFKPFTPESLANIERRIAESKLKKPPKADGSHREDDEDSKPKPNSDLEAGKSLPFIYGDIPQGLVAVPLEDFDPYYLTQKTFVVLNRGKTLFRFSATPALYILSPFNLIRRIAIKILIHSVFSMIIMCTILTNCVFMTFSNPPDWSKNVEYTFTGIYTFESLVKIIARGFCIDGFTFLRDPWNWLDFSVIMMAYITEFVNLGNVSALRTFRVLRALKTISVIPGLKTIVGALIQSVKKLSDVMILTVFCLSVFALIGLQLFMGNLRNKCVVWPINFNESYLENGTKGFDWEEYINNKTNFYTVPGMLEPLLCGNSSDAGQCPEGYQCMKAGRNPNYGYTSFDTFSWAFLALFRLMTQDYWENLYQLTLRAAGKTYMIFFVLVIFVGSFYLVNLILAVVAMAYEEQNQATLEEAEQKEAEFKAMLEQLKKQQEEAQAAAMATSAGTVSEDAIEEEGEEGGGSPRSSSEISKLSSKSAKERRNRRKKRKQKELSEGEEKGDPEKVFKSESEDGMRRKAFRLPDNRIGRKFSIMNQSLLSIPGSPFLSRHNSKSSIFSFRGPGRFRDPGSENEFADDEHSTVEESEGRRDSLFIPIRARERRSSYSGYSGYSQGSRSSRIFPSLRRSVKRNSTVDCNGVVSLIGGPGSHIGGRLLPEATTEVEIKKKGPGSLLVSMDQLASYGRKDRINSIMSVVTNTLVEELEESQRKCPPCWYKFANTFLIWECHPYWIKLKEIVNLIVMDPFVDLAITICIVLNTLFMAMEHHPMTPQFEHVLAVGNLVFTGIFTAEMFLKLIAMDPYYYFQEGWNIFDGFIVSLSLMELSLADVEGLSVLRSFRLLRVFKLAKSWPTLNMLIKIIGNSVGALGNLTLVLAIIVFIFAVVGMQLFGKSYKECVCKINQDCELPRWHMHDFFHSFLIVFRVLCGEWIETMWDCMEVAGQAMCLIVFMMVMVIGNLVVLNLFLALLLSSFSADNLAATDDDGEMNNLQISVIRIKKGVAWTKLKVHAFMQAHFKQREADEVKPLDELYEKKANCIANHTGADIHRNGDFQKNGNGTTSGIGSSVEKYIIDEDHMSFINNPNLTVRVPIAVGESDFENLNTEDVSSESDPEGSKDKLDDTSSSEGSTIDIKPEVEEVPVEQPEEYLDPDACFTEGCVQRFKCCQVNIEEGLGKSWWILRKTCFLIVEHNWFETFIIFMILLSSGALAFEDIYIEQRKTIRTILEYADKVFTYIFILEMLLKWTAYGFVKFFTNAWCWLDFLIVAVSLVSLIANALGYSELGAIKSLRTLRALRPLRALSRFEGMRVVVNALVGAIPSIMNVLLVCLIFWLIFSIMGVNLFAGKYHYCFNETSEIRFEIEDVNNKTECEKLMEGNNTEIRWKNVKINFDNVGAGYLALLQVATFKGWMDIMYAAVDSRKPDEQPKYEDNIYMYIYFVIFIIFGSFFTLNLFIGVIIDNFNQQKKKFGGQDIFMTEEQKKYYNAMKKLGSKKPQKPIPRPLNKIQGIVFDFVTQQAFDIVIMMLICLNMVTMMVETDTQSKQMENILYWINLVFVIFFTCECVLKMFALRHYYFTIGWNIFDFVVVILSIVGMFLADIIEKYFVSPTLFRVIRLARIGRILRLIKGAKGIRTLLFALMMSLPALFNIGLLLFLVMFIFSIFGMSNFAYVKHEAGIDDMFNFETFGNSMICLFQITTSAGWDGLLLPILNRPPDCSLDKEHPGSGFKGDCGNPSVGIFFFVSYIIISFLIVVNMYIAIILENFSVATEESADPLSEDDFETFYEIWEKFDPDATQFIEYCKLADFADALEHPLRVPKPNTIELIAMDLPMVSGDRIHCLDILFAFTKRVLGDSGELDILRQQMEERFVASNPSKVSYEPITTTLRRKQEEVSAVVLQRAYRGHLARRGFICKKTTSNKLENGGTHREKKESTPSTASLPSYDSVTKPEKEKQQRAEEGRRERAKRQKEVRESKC

Biological target: human NaV1.6 (hNaV1.6) (Homo sapiens (Human), UniProt Q9UQD0)
Assay: INaL inhibition at hNaV1.6, PatchXpress electrophysiology
Assay type: cell-based
Details: HEK293, read-out: INaL v1.6 (1 μM, % Inhibition)
Experimental: Functional characterization of exemplary compounds to modulate INaL expressed by the Nay 1.6 voltage-gated sodium channel was accomplished using the PatchXpress™ high throughput electrophysiology platform (Molecular Devices, Sunnyvale, Calif.). HEK-293 cells expressing recombinant, human NaV1.6 (hNaV1.6) were grown in DMEM/high-glucose Dulbecco's modified, 10% FBS, 2 mM sodium pyruvate, 10 mM HEPES and 400 μg/mL G418. Cells were grown to 50%-80% confluency prior to harvesting. […] The onboard liquid handling facility of the PatchXpress was used for dispensing cells and applying test compounds. Nay late currents were evoked by the application of 300 nM ATX-II. […] INaL amplitude and stability were determined by analyzing the mean current amplitude over the final 20 ms of the test pulse. […] Percent steady-state inhibition of INaL was calculated as: [(INaL_compound)/(INaL_control)]*100, where INaL_compound and INaL_control represent INaL recorded in the presence or absence of compound, respectively.

CN(C)c1nnc2cnc(-c3ccc(OC(F)(F)F)cc3)cn12 [Compound 153]
inhibition at 1 µM: < 30%
